Earlier results as cited in patent publication US7728132B2, “Compositions for stabilizing chlorinated water to sunlight decomposition, and methods of preparation thereof” (Enviro Tech Chemical Services, Inc., priority 2007, dated 2010).

Details: chlorinated water exposed to strong sunlight; cited from earlier work

With chlorine as the substance, how does the half-life read?
The half-life was “less than 45 minutes”.
